Measurements: patent US11993574B2, “Pyrazole and imidazole compounds for inhibition of IL-17 and RORgamma” (REATA PHARMACEUTICALS, INC., priority 2018, dated 2024)

Sequences of proteins named here, by UniProt entry; tags and fusion partners are left off. Residues count along the entry.
UniProt P51449, 269-508 limits assumed: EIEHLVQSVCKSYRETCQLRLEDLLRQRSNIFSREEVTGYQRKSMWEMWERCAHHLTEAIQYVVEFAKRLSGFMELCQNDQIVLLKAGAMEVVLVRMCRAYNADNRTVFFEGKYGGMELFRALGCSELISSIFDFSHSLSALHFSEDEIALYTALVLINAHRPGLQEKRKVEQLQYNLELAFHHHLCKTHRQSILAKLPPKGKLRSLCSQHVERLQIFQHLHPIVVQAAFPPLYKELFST

Columns and labels:
[1] = biological target: Human RAR-related Orphan Receptor Gamma (RORγ) (Homo sapiens, UniProt P51449); experiment: RORγ assay (GAL4-RORγ hybrid luciferase reporter, Indigo Biosciences); settings: read-out: RORγ IC50; inverse-agonist activity, GAL4-RORγ reporter cells, 23 hours
From the text: B. RORγ Assay and Cell Viability
The RORγ assay system was purchased from Indigo Biosciences. This nuclear receptor assay utilizes a human cell line that has been engineered to express a hybrid form of the Human RAR-related Orphan Receptor Gamma (RORγ) at high levels. The N-terminal DNA binding domain (DBD) of the native RORγ receptor was substituted with the yeast GAL4-DBD to generate the GAL4-RORγ hybrid nuclear receptor. The reporter cell line is transfected with a plasmid that encodes the beetle luciferase gene under the control of the GAL4 upstream activating sequence (UAS). GAL4 binds to the UAS and increases transcription of downstream target genes. The GAL4-RORγ hybrid is constitutively active; therefore, the principle application of this reporter assay system is to screen test compounds to quantify inverse-agonist activities against human RORγ. Because the ligand binding domain (LBD) of RORγ is identical to the LBD of RORγt, this assay is an accurate surrogate for evaluating activity of experimental ligands against RORγt. […] After this incubation, luciferin was added to the wells and luciferase activity was determined by measuring the luminescence signal using a BMG Pherastar microplate reader. Viability was determined using the Live Cell Multiplex Assay (Indigo Biosciences). […] Data were analyzed using GraphPad Prism version 6.00 for Windows (GraphPad Software, La Jolla Calif. USA). […]

[2] = tested on: Nrf2 transcription factor; experiment: AREc32 luciferase reporter assay; settings: AREc32 cells, 19 hours; concentration required to increase GST ARE luciferase reporter activity by 2-fold
From the text: A. AREc32 Luciferase Reporter Assay
The AREc32 luciferase reporter assay allows for quantitative assessment of the endogenous activity of the Nrt2 transcription factor in cultured mammalian cells. AREc32 cells are derived from MCF-7 human breast carcinoma cells that were stably transfected with a reporter construct that contains the firefly luciferase gene located downstream of eight copies of the rat GSTA2 antioxidant response element (ARE) sequence (Wang et al., 2006; Concept Life Sciences Integrated Discovery and Development Services Ltd (CLSIDDS)). Active Nrf2 binds to the ARE sequences and increases expression of the firefly luciferase gene. To assess the Nrf2-activating potential of the test compounds, AREc32 cells were plated in black […] plates at a density of 20,000 cells per well in triplicate in DMEM+10% FBS+0.8 mg/mL Geneticin and incubated at 37° C. with 5% CO2 in a humidified atmosphere. […] Luciferase activity was determined using the ONE-Glo Luciferase assay (Promega). The luminescence signal was measured on a BMG Pherastar microplate reader. The mean luminescence value from test compound-treated wells was normalized to that from DMSO-treated wells and was represented as fold-induction. Data were analyzed using GraphPad Prism version 6.00 for Windows, GraphPad Software, La Jolla Calif. […]

IL-17A = experiment: IL-17 release from differentiated primary human T-cells (IL-17A HTRF assay); settings: read-out: hIL17 IC50; primary human CD4+ T cells differentiated into Th17 cells, 45-hour incubation, IL-17A in supernatant
Procedure: C. IL-17 Release from Differentiated Primary Human T-Cells and Cell Viability
Primary human cryopreserved CD4+ T Cells (Lonza) were thawed according to the manufacturer's recommendations and plated either in Lymphocyte Growth Medium-3 (LGM-3) or X-VIVO 20 media (Lonza) in 96-well tissue culture plates at a density of ˜2×10^5 cells per well, and allowed to recover for approximately 4 hours at 37° C. with 5% CO2 in a humidified atmosphere. After the recovery step, DMSO (vehicle) or test compound at doses ranging from 2 to 500 nM or 4 to 1000 nM in a three-fold dilution series was added to the cells. Three replicate wells were tested for each treatment condition. […] Cell viability was assessed in the original plate using the CyQuant Direct Assay (Life Technologies). […] Fluorescence was read on a SpectraMax M2e spectrophotometer at 480 nm (excitation) and 535 nm (emission) wavelengths. […] The concentration of IL-17A in the supernatant was measured using the Homogeneous Time-Resolved Fluorescence (HTRF) assay (Cisbio Bioassays) according to the manufacturer's protocol. […] Data were analyzed using GraphPad Prism (GraphPad Software, La Jolla California USA). […] The IC50 values for compound-mediated reduction in IL-17A levels and cell viability were determined by non-linear regression analysis using the log(inhibitor) vs. normalized response with variable slope equation. […]

| Structure (SMILES) | IC50 [1] [nM] | NRF2 ARE 2-Fold (EC2×) [2] [µM] | IC50 (IL-17A) [nM] |
| --- | --- | --- | --- |
| C[C@@]12C=C(C#N)C(=O)C[C@H]1CCc1c(-c3ccccc3)nn(-c3ccc(F)cc3)c12 | 248 | 0.292 | – |
| C[C@@]12C=C(C#N)C(=O)C[C@H]1CCc1c(-c3ccccc3)nn(-c3ccc(C#N)cc3)c12 | 257 | 0.502 | 141 |
